Assay results reported in article PMC11926787 (ACS Chemical Neuroscience, 2025).

Sequences of proteins named here, by UniProt entry; tags and fusion partners are left off.
UniProt P21397, whole entry: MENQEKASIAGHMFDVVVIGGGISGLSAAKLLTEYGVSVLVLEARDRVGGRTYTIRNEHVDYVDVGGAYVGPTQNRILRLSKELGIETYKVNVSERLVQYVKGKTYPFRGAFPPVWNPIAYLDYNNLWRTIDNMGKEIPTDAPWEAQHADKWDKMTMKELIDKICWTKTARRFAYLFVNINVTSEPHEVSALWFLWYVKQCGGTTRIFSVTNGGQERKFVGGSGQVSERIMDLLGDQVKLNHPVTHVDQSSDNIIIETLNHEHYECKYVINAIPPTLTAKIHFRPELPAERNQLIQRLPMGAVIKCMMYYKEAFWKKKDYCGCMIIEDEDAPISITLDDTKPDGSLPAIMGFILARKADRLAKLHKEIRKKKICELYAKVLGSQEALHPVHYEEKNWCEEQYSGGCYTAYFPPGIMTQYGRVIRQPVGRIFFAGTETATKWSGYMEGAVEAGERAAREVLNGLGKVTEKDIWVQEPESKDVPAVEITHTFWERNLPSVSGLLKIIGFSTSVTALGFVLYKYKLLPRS

Molecular target: human MAO-A (Homo sapiens, UniProt P21397)
Test: MAO-Glo bioluminescent enzymatic assay, MAO-A
Format: biochemical
Details: MAO-A inhibition mean IC50 value, human recombinant MAO-A

Question: For `c1ccc2c(c1)[nH]c1cnccc12` [norharman], which IC50 is on record?
Answer: The IC50 was 1700 nM.
